# Measured values taken from patent US7727731B2, “Potent, selective and non toxic c-kit inhibitors” (AB Science, priority 2001, dated 2010).
# Test system: P815 (endogenous c-kit carrying the 814V mutation)
# Assay: Proliferation test, P815 cells
# Conditions: doses inferior to toxicity level (<10 μM)
substance,measurement,value
STI 571,"Effect on proliferation of cells carrying 814 mutation, P815",not the proliferation of cells carrying 814 mutation
